This is an account of results in US4136193A, “Anti-depressive substituted 1-dimethylaminopropyl-1-phenyl phthalans” (Kefalas A/S, priority 1976, dated 1979).

The assay concerns 14C-5-HT-uptake in rabbit blood platelets. Nature of the assay: Inhibition of 14C-5-HT-uptake in rabbit blood platelets in vitro. The assay is classed as cell-based. The conditions noted are these: Oryctolagus cuniculus, Platelet, pH 7.2, read-out: C14 5-HT uptake inhibitory concentration IC50. As to the method: Two ml of rabbit platelet-enriched plasma, containing EDTA as an anticoagulant, were incubated with test compound and 2 ml of 0.05 M Na-P-buffer, pH 7.2, for 5 minutes at 37° C. […] The incubation was terminated by transferring the test tubes to an ice bath, and the platelets were isolated by centrifugation (~4000 g, 5 min., 4° C.). After draining, the platelets were gently washed with 4 ml of ice-cold saline, and the remaining radioactivity was determined. The uptake in the test samples was calculated in percent of the uptake in the control group and plotted against the concentration of test compound on semilogarithmic probability paper, from which the IC50-value was determined.
For `CN(C)CCC=C1c2ccccc2CCc2ccccc21` [Amitriptyline, reference compound], the IC50 was 0.5 µM. Regarding `CN(C)CCCN1c2ccccc2CCc2ccc(Cl)cc21` [Chlorimipramine, reference compound], the IC50 was determined as 0.077 µM.

As to `CN(C)CCCC1(c2ccc(F)cc2)OCc2cc(C#N)ccc21` (stereo not drawn) [Lu 10-171, 1-(4'-fluorophenyl)-1-(3-dimethylaminopropyl)-5-phthalancarbonitrile], the IC50 was 0.014 µM.
